For the assay, the target named is P2X purinoceptor 4 (Homo sapiens, UniProt Q99571). The experiment in a line: Antagonist activity at human P2X4 receptor overexpressed in human 1321N1 cells assessed as inhibition of ATP-induced calcium responses by Fluo-4 AM/Ca2+ Flux assay. It counts as cell-based. For orientation: A change in cytosolic calcium serves as a functional read-out for many receptors and channels.

As for `Cc1ccccc1CS(=O)(=O)Nc1ccc(N2C(=O)CC(=O)Nc3c2ccc2ccccc32)cc1`, the IC50 is 15 nM.

Regarding `O=C1CC(=O)N(c2ccc(NS(=O)(=O)c3ccccc3)cc2)c2ccc3ccccc3c2N1`, the IC50 turned out to be 1620 nM.

A word on the IC50: it is the point on the concentration scale where inhibition reaches its midpoint.

(Values after ChEMBL document CHEMBL6109055, “Naphtho[1,2-b][1,4]diazepinedione-Based P2X4 Receptor Antagonists from Structure-Activity Relationship Studies toward PET Tracer Development” (J Med Chem, 2025).)
